Antibody variant affinities, Ab-14 heavy chain, assay 1

From the AlphaSeq antibody data of Engelhart et al. 2022 (doi:10.1038/s41597-022-01779-4), copy in the FLAb collection.

The target is the same throughout: PDVDLGDISGINAS, from the HR2 region of SARS-CoV-2 spike.

Ab-14 is the parent antibody, in scFv form: VH, then a 15-residue (Gly4Ser)3 linker, then VL. The light chain is unchanged in all variants.
VH: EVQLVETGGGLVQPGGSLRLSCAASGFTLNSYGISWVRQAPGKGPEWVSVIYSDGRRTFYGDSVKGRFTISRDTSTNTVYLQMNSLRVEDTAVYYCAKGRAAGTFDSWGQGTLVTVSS
VL: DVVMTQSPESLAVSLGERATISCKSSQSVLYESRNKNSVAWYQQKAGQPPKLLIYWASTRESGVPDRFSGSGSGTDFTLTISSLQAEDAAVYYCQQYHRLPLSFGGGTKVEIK

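Phage display of a naive human antibody library on the peptide gave the parent. The library (AAYL49) carries one to three amino acid substitutions per variant, with no insertions or deletions. The assay is AlphaSeq: two haploid yeast populations carry antibody and antigen on their surface. After mating in shaken culture at 30 °C for 16 h, diploids were selected and their barcode pairs sequenced. A regression on co-assayed BCL2-family reference pairs converts the normalised counts of each replicate to an apparent Kd. The assay was run in three technical replicates.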

Substitutions are numbered in sequence along the VH above, starting at 1 (not Kabat).
All variants listed here change S63 of the VH, counted from its first residue.
Affinities are written as log10 Kd with Kd in nM; a lower number is a better binder.
Averages over replicates are reported, and they cover detected replicates only.
Where no diploid with the target was found in any replicate, the entry reads "nd": below detection, most likely a poor binder, though not proof of it.
Nonspecific signal, from three strains lacking the peptide, appeared in 15% of pairings of library AAYL49, centred on 4.06 (5% of these signals below 2.83); values are not corrected for it.

Variant T58S G61H S63R gave 2.30 (3 of 3 replicates).
Variant Y32C Y52T S63Y gave 5.30 (3 of 3 replicates).
Variant S53G S63K F105D gave nd (0 of 3 replicates).
Variant S53T S63R G103W gave 3.44 (3 of 3 replicates).
Variant S63A G99S gave 2.12 (3 of 3 replicates).
Variant F59M S63R R100M gave 2.06 (3 of 3 replicates).
Variant S63C K65G gave 3.69 (1 of 3 replicates).
Variant S63C A101P G103A gave nd (0 of 3 replicates).
Variant S35Y Y52T S63L gave nd (0 of 3 replicates).
Variant G61V S63A A102T gave 0.84 (3 of 3 replicates).
Variant Y52N D62E S63E gave 4.99 (2 of 3 replicates).
Variant Y60I S63M gave 3.93 (2 of 3 replicates).
Variant S31T S53T S63W gave 4.03 (1 of 3 replicates).
Variant N30E S63A R100Y gave 0.82 (3 of 3 replicates).
Variant Y52D F59H S63K gave 4.17 (2 of 3 replicates).
Variant L29F S63V F105Y gave 4.35 (1 of 3 replicates).
Variant Y32A S63L gave 3.25 (1 of 3 replicates).
Variant F27L S63I F105I gave 5.76 (1 of 3 replicates).
Variant I34R S63V A101E gave 4.14 (1 of 3 replicates).
Variant S35L S63I G103H gave 5.01 (3 of 3 replicates).
Variant S31N S63G gave nd (0 of 3 replicates).
Variant G61N S63F R100W gave 0.64 (3 of 3 replicates).
Variant F59L S63V D106W gave 5.61 (1 of 3 replicates).
Variant V50E D62P S63N gave 2.26 (1 of 3 replicates).
Variant F27A S63A G99W gave nd (0 of 3 replicates).
Variant S31V S63P T104G gave 3.31 (3 of 3 replicates).
Variant S35I S63F V64H gave 4.19 (2 of 3 replicates).
Variant T58G S63I G103C gave nd (0 of 3 replicates).
Variant G33Y F59T S63A gave 3.77 (2 of 3 replicates).
Variant Y32D R57Q S63Y gave nd (0 of 3 replicates).
Variant S31V R56T S63H gave 3.15 (2 of 3 replicates).
Variant S35M Y60L S63G gave 4.80 (1 of 3 replicates).
Variant T28W S63W F105Y gave 4.97 (1 of 3 replicates).
Variant I34N S63M D106H gave 4.94 (3 of 3 replicates).
Variant V50D R56W S63C gave 4.60 (1 of 3 replicates).
Variant R57S S63G T104W gave nd (0 of 3 replicates).
Variant R56V S63Q G99Y gave 4.48 (2 of 3 replicates).
Variant F27P D62P S63Q gave 1.54 (3 of 3 replicates).
Variant L29T S63H A101M gave nd (0 of 3 replicates).
Variant T28C R56K S63M gave nd (0 of 3 replicates).
Variant N30A Y32A S63F gave nd (0 of 3 replicates).
Variant S63G gave 1.12 (3 of 3 replicates).
Variant T28P S53F S63E gave 1.75 (3 of 3 replicates).
Variant F27S S63F A101W gave 3.39 (2 of 3 replicates).
Variant S63C R100M gave 2.47 (3 of 3 replicates).
Variant S53N S63N R100M gave 4.14 (1 of 3 replicates).
Variant T28W S63Q gave nd (0 of 3 replicates).
Variant T28W S63W G103D gave 5.23 (1 of 3 replicates).
Variant S63M V64W F105S gave nd (0 of 3 replicates).
Variant S53K S63M gave nd (0 of 3 replicates).

The last 4 entries again:

With T28W S63Q the result was nd (0 of 3 replicates).
With T28W S63W G103D the result was 5.23 (1 of 3 replicates).
With S63M V64W F105S the result was nd (0 of 3 replicates).
With S53K S63M the result was nd (0 of 3 replicates).

In this assay the parent's reference entry averaged 0.65; its copy inside this library read 4.11 (one replicate of three).